Laboratory results reported in PMC5196007 (Journal of pharmaceutical and biomedical analysis, 2016).

Assay: Stability of analytes in whole blood samples
Format: in vitro ADME, rat
Conditions: n = 6

For ecgonine, the “Stability Bias (%)” value (Bench top (4 hours, room temperature), high concentration 190–320 ng/ml (1 µM)) was 3.6%, the “Stability Bias (%)” value (Bench top (4 hours, room temperature), low concentration 1.9–3.2 ng/ml (0.01 µM)) was −1.5% and the “Stability Bias (%)” value (Bench top (4 hours, room temperature), medium concentration 95–160 ng/ml (0.5 µM)) was 7.6%. The “Stability Bias (%)” value (Freeze-thaw (4 cycles), high concentration 190–320 ng/ml (1 µM)) was 2.6%, the “Stability Bias (%)” value (Freeze-thaw (4 cycles), low concentration 1.9–3.2 ng/ml (0.01 µM)) was 3.5% and the “Stability Bias (%)” value (Freeze-thaw (4 cycles), medium concentration 95–160 ng/ml (0.5 µM)) was 10.2%. The “Stability Bias (%)” value (Long-term (−70°C, 4 months), high concentration 190–320 ng/ml (1 µM)) was 3.8%, the “Stability Bias (%)” value (Long-term (−70°C, 4 months), low concentration 1.9–3.2 ng/ml (0.01 µM)) was −4.9% and the “Stability Bias (%)” value (Long-term (−70°C, 4 months), medium concentration 95–160 ng/ml (0.5 µM)) was 10.7%.
